Literature values in patent US9809865B2, “Anti-microbial agent from Paenibacillus sp. and methods and uses thereof” (Best Environmental Technologies, Inc., priority 2009, dated 2017).

Settings: 121° C. for 15 min at pH 3; cited from earlier work

Q: With nisin as the substance, how does the “Activity after heat treatment” value read?
A: remained active
